Measured values as given in PMC7723054.
Some of the results follow.

Legend:
Experiment in all cases: FOREST: bead pull-down of RNA structure library v1, barcode microarray; U1A/LIN28A: 20 mM HEPES pH 7.5, 80 mM KCl, 20 mM NaCl, 10% glycerol, 2 mM DTT, 0.1 ug/uL BSA, 4 C; BG4/CIRBP/DHX36: 10 mM Tris-HCl pH 7.5, 100 mM KCl (or LiCl),; high values mean tight binding
U1A = U1A (Homo sapiens, UniProt P09012)
LIN28A = molecular target: T1, LIN28A (human?, UniProt Q9H9Z2 1-209)
T1 sequence: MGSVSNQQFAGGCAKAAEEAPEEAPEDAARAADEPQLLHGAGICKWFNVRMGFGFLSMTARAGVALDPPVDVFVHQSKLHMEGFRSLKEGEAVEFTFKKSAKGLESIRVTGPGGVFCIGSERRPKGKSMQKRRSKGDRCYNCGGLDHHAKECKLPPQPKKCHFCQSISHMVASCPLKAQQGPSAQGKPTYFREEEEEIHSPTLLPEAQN

CIRBP = molecular target: T2, CIRBP (Homo sapiens, UniProt Q14011 1-172)
T2 sequence: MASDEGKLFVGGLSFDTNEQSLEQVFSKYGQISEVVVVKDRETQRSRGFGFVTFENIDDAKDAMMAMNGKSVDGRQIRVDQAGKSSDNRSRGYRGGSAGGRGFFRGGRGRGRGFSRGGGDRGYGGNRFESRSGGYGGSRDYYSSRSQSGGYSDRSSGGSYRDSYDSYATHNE

DHX36 = molecular target: T3, DHX36 (Homo sapiens, UniProt Q9H2U1 1-1008)
T3 sequence: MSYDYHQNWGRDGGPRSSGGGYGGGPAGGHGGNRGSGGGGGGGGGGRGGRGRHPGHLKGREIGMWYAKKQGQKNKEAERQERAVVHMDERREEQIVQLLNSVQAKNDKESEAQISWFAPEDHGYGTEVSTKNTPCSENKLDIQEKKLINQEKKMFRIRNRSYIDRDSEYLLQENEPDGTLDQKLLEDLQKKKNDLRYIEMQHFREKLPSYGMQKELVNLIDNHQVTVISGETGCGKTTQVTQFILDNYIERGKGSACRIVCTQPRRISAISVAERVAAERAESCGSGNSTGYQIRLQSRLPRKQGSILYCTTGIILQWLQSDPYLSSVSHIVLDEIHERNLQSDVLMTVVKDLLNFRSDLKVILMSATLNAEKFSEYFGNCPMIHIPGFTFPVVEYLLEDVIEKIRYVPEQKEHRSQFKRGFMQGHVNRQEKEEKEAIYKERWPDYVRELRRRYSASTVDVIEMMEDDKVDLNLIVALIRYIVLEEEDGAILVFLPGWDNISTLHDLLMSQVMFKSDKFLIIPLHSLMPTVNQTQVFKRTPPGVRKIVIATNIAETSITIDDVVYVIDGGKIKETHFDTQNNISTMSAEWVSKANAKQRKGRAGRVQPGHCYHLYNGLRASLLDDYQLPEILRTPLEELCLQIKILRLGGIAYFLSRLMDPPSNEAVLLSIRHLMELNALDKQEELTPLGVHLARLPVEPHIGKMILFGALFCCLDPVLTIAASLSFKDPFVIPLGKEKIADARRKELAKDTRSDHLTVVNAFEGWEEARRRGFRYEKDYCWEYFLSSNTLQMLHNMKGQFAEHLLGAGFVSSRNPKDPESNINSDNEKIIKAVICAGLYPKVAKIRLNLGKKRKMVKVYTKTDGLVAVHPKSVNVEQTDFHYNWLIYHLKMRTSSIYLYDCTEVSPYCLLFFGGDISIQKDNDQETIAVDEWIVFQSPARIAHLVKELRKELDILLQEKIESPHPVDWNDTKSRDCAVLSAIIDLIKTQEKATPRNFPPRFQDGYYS

Row | Binder | binding signal (U1A) [z-score] | binding signal (LIN28A) [z-score] | binding signal (CIRBP) [z-score] | binding signal (DHX36) [z-score]
1 | hsa-mir-1206 (structured_RNA) RNA: GGGAUAUCAGUCAGAAGGGCGUCUCCCUGGUGUACGAAGUUUCAGCAAGCUCUUGCAGUAGGUUUGCUGAAGCUUCGUGCAC | 1.21 | 0.4 | -0.363 | 1.08
2 | hsa-mir-6865 (structured_RNA) RNA: GGGAAACGUGCACAACUUAUAACUUGGCGGUGUACGAAGUUUCAGCACUUCAGAUGCUUCAUGACAGCUGAAGCUUCGUGCAC | 1.21 | -0.167 | -0.535 | -0.925
3 | hsa-mir-3126 (structured_RNA) RNA: GGGAAAGUCAGCAUGUGAAAUGCAGGGUGGUGUACGAAGUUUCAGCGAAGCACUGGUUAUGAUUUGCAUCGCUGAAGCUUCGUGCAC | 1.21 | 0.118 | -0.253 | -0.303
4 | hsa-mir-6726 (structured_RNA) RNA: GGGAAGGGGUCAAACGUGGACAAAACUUGGUGUACGAAGUUUCAGCUCUGCAGGUUCGCACUGAUGCCUGCUCGGCUGAAGCUUCGUGCAC | 1.2 | 0.552 | 1.28 | 0.584
5 | hsa-mir-151b (structured_RNA) RNA: GGGAAUUCCUGCCAGUGCAAAAUGCAAUGGUGUACGAAGUUUCAGCCGAGACACAGAAACAGACACCUGCCCUCGAGCUGAAGCUUCGUGCAC | 1.2 | -0.295 | -0.958 | -0.617
6 | r(CAG)16: (structured_RNA) RNA: GGGAGCCCAAGGUGAUGCUCUGGUUCAUGGUGUACGAAGUUUCAGCCAGCAGCAGCAGCAGCAGCAGCAGCAGCAGCAGCAGCAGCAGCAGCAGGCUGAAGCUUCGUGCAC | 1.2 | 0.585 | 0.788 | 0.727
7 | hsa-mir-3131 (structured_RNA) RNA: GGGAAGUGACGUGACCAAUACCACGCCAGGUGUACGAAGUUUCAGCCCUUUCCCCUCAGACCAAGGGCUGAAGCUUCGUGCAC | 1.19 | -0.932 | -1.1 | 0.479
8 | hsa-mir-1324 (structured_RNA) RNA: GGGACUCUCGAUCCAGGCACAUGGAUUCGGUGUACGAAGUUUCAGCGUCCUGCCCUCACUGGGAACCCCCUUCCCUCUGGGUACCAGGCUGAAGCUUCGUGCAC | 1.19 | -1.68 | -1.34 | 0.363
9 | PARIS_ID37 (structured_RNA) RNA: GGGAAAAGCACGCGGACCUUAUACAUGUGGUGUACGAAGUUUCAGCUAGGACAAUACAGACAGUAACUCCUAGCUGAAGCUUCGUGCAC | 1.19 | -0.776 | -1.13 | 0.423
10 | hsa-mir-3914-2 (structured_RNA) RNA: GGGACACAGGAACGGAACAGUGUAGAGAGGUGUACGAAGUUUCAGCCCUUCUACCAAGUUAAGCAUACUCAUUAGAAGGGCUGAAGCUUCGUGCAC | 1.19 | 0.148 | -0.132 | -0.521
11 | hsa-mir-8066 (structured_RNA) RNA: GGGAAGUCAACACUGCGGCCCCUAUACGGGUGUACGAAGUUUCAGCAUUGUUGCCUCUGCAUGUUACAAUGCUGAAGCUUCGUGCAC | 1.17 | 0.125 | 0.228 | -1.08
12 | hsa-mir-3198-2 (structured_RNA) RNA: GGGAAGACCUACGUCAGGAUCUCGAAACGGUGUACGAAGUUUCAGCAGCAGUACCAGAUGGUUCUGUGGGCUGAAGCUUCGUGCAC | 1.17 | -1.51 | 0.105 | -0.98
13 | hsa-mir-887 (structured_RNA) RNA: GGGAAGCAGGAAUCUCAUUCGUGUAUGGGGUGUACGAAGUUUCAGCAGACUCUGGAUUUUACACUUGGAGUGGCUGAAGCUUCGUGCAC | 1.17 | 0.0366 | 0.863 | -0.141
14 | hsa-mir-7978 (structured_RNA) RNA: GGGAAGAGGCUAGACAACUGAGACUAGGGGUGUACGAAGUUUCAGCCUCAAGUCCUCUAUUUCUUUGAAGCUGAAGCUUCGUGCAC | 1.16 | -0.0691 | 1.35 | 1.04
15 | hsa-mir-1295b (structured_RNA) RNA: GGGAAUGCUAAUGACGAGUUCCGGCGAAGGUGUACGAAGUUUCAGCUAAUCACAGGCCACAUUUCUGAAUAGCUGAAGCUUCGUGCAC | 1.16 | 0.876 | 1.53 | 0.92
16 | hsa-mir-1273a (structured_RNA) RNA: GGGACAGGCAUUCAUUCUCAGUGGCGAGGGUGUACGAAGUUUCAGCACCCGGGUGGUGGAGGUUGCAGUGAGCCAAGAUUGCGCCACUGCACUCCAGCCUGGGCGCUGAAGCUUCGUGCAC | 1.16 | 0.538 | -0.304 | 0.881
17 | hsa-mir-103a-2 (structured_RNA) RNA: GGGACCGACCAUCCACUCACAUACACCGGGUGUACGAAGUUUCAGCUGCCUUGUAGCAUUCAGGUCAAGCAGCUGAAGCUUCGUGCAC | 1.14 | 0.147 | 0.424 | -1.35
18 | hsa-mir-7844 (structured_RNA) RNA: GGGAGGUCACGUAGGACCCUGUCUCGAAGGUGUACGAAGUUUCAGCUGUAAAUAACUACAAUUCUCUUAACUCCGUAGCAGUUGCGCUGAAGCUUCGUGCAC | 1.14 | -0.812 | -2.05 | -1.49
19 | hsa-mir-330 (structured_RNA) RNA: GGGACUGAUACCGCAGCUAGGCCAUCAAGGUGUACGAAGUUUCAGCAGGCUCUGCAAGAUCAACCGAGCAGCUGAAGCUUCGUGCAC | 1.14 | 1.17 | 0.515 | 0.872
20 | hsa-mir-711 (structured_RNA) RNA: GGGACGUUAGGUGGACACGCAUUAUGUAGGUGUACGAAGUUUCAGCGCUGCAGGCAAAGCUGGGGGCUGAAGCUUCGUGCAC | 1.12 | 0.229 | 0.333 | -0.053
21 | hsa-mir-5094 (structured_RNA) RNA: GGGAAGACGACACGUCACUUCACACCGGGGUGUACGAAGUUUCAGCACCUAACACACUGCCUUUUAUGUGGUAGGUGCUGAAGCUUCGUGCAC | 1.12 | -0.806 | 0.62 | -0.157
22 | hsa-mir-6845 (structured_RNA) RNA: GGGACGUGGGUACAACUCACGACUCCCUGGUGUACGAAGUUUCAGCGAGCCCUUGCACACCACCAGCCUCGCUGAAGCUUCGUGCAC | 6.27 | 0.0877 | 0.274 | -0.134
23 | hsa-mir-1257 (structured_RNA) RNA: GGGACGGUACCAGUUGAGGGAUAUUAAUGGUGUACGAAGUUUCAGCGACCCCCAUGCACCCCUGUGGGCCCCUGGCAUCGCUGAAGCUUCGUGCAC | 2.51 | -0.42 | -0.601 | 0.345
